Assay results published in US20250009755A1, “COMPOSITIONS AND METHODS FOR THE TREATMENT OF OCULAR DISEASES AND INJURIES” (Ohio State Innovation Foundation, priority 2021, published 2025).
“And” between values parts separate entries of the source, which are not always exact repeats. Identical values can stand only once. “Also recorded” adds a separate entry of the source.

Legend:
IL-1β [1] = assay: IL-1β ELISA in ARPE-19 cell lysate and media; type: cell-based, human
Method: (§1) ELISA Quantification. The ability of here-albumin to induce expression of HO-1, under baseline and stressed conditions, was quantified using a heme oxygenase 1 ELISA kit. Heme-albumin's impact on IL-1β and activated p38 MAPK in retinal cells were also measured. Briefly, ARPE-19 cells were seeded in 6-well plates at 1×10^6 cells/well (n=6). Cells were allowed to adhere 24 hours before aspiration of media and treatment with either 500 μg/mL heme-albumin, 100 μM H2O2 or co-treated with heme-albumin and 100 μM H2O2. Fresh media was used as a basal control. Incubation with treatment was continued for 24 hours before analysis. Cell lysis and ELISA were performed via manufacturer's recommendation.
Heme-Albumin impacts IL-1β expression with oxidative challenge. To investigate heme-albumin's impact on inflammatory signalling, ELISA quantification of expressed protein was conducted on pro-inflammatory cytokine, IL-1β. Cytokine expression of basal, oxidatively stressed and co-treatment of oxidative stress and heme-albumin in both cell lysate and media was evaluated. Results are shown in FIG. 23 as percent expression compared to control.

ARPE-19 cells [2] = assay: Oxidative stress assay (DCFDA), H2O2 ROS model; type: cell-based, human; conditions: 100 μM H2O2, 24 h, 1000 μg/mL heme-albumin
Method: (§2) Oxidative Stress Assay. The ability of heme-albumin, PDA NPs and heme-albumin loaded PDA NPs to reduce oxidative stress in both inflammatory and ROS models in ARPE-19 cells was investigated using published techniques with slight modifications.^42 Cells were seeded at a density of 4×10^4 cells per well in a 96-well dark walled plate and left to adhere for 24 hours. Therapeutic agent heme-albumin, blank PDA NPs, or heme-albumin loaded PDA NPs were applied at varying concentrations (10-1000 μg/mL or 10-200 μg/mL for both nanoparticle groups, respectively) to the cells directly. In addition to the therapeutic, lipopolysaccharide (LPS) (10 μg/mL) or H2O2 (100 μM) were applied to the wells. After 24 hours of incubation with therapeutic and stressing agent, the cells were washed with 100 μL 1× dilution buffer, stained for 45 minutes with 100 μL of 10 μM DCFDA dye and washed again with dilution buffer before fluorescence at Ex/Em=485/535 nm was measured with the microplate reader.
Oxidative Stress Reduction in H2O2 ROS Model. With aging and metabolic fatigue, the imbalance that occurs within the posterior segment of the eye results in accumulation of ROS, causing tissue damage and overexpression of inflammatory cytokines and growth factors. The ability of heme-albumin, unloaded PDA NPs, and heme-albumin loaded PDA NPs to reduce oxidative stress from ROS was therefore investigated. […]

ARPE-19 cells [3] = assay: Oxidative stress assay (DCFDA), LPS inflammatory model; type: cell-based, human; conditions: 10 μg/mL LPS, 24 h
Method: as §2
Oxidative Stress Reduction in Inflammatory Model. Chronic inflammation is a hallmark of dry AMD and plays a crucial role in disease progression to geographic atrophy and wet AMD. […] After 24 hrs, the cells were stained with 10 μM DCFDA stain for 45 minutes before fluorescence was measured at Ex/Em=485/535 nm. […]

p38β MAPK = p38β MAPK immunofluorescent staining of ARPE-19 cells; type: cell-based, human; conditions: 500 μg/mL heme-albumin + 100 μM H2O2, 24 hours, vs H2O2 or basal alone
Method: p38β MAPK Immunofluorescent Staining. Changes in production of the p38β MAPK protein were measured by immunofluorescent staining. ARPE-19 cells were seeded in a 12-well plate before treatment with either 100 μM H2O2 or co-treatment with 100 μM H2O2 and 500 μg/mL of heme-albumin (n=4) Cells without either treatment were used as a negative control. After 24 hour incubation with treatments, cells were fixed with 0.1% Triton X-100 for 10 minutes, blocked with 5% BSA for 1 hr, and stained with p38 β MAPK primary antibody, in 1% BSA, overnight. Mouse IgG secondary antibody was added before DAPI staining.
Heme-Albumin induces p38β MAPK isoform expression.

Caspase-9 = assay: PCR quantification of caspase-9 gene expression in ARPE-19 cells; type: cell-based, human; conditions: 500 μg/mL heme-albumin, oxidative stress conditions, p=0.0468
Method: (§3) PCR Quantification. Investigation of heme-albumin's effect on baseline expression of pro-inflammatory cytokines, compared to control, or heme-albumin's impact on gene expression in oxidative challenge conditions was analysed in an identical manner as described above. 1×10^6 ARPE-19 cells/well were seeded in a 6-well plate (n=6) and treated with 500 μg/mL of heme-albumin after 24 hours. Media was used as a baseline control. The samples were collected and isolated with Tryzol. After RNA quantification, the cDNA was made using SuperScript™ VILO™ cDNA Synthesis Kit. The total mass used to prepare the cDNA was 2500 ng. 50 ng of cDNA was used to perform the PCRs. Human IL-6, IL-1β, Caspase-3, and Caspase-9 were used as target genes for investigation of heme-albumin's impact on pro-apoptotic and inflammatory cytokine expression. Primer sequences for PCR are supplied in Table 1 below. GAPDH was used as a housekeeping gene.
(§4) Treatment of heme-albumin in oxidative stress conditions reduces pro-apoptotic and IL-6 gene expression. The impact of heme-albumin on pro-inflammatory and pro-apoptotic gene expression in oxidative stress conditions was determined and results are presented in FIG. 22.

HO-1 = assay: Heme oxygenase 1 ELISA in ARPE-19 cells; type: cell-based, human
Method: as §1
Heme-Oxygenase 1 Expression is Increased by Heme-Albumin. The proposed therapeutic activity of heme-albumin is provided by induction of the HO-1 enzyme that, through catabolismof heme, generates the anti-inflammatory and antioxidant components CO and biliverdin. Expression of HO-1 by exposure to 500 μg/mL heme-albumin was quantified by ELISA, at both baseline and stressed conditions, as depicted in FIG. 19.

phospho-p38 MAPK = phospho-p38 MAPK ELISA in ARPE-19 cells; type: cell-based, human; conditions: 500 μg/mL heme-albumin
Method: as §1
Heme-Albumin increases phospho-p38 MAPK Expression. Induction of HO-1 and production of CO by-product is theorized to provide anti-inflammatory relief through cytokine regulation through the p38 MAPK pathway. […] Compared to basal condition control, heme-albumin caused a 200% increase in activated protein expression.

IL-6 = assay: PCR quantification of IL-6 gene expression in ARPE-19 cells; type: cell-based, human
Method: as §3, with “GAPDH was used as a housekeeping gene.” left out
(§5) To determine heme-albumin's impact on inflammatory signaling in unstressed conditions, PCR analysis was conducted on pro-inflammatory cytokines, IL-1β and IL-6. Cytokines were measured and compared to untreated control.
as §4

ARPE-19 cells [4] = assay: Cell viability assay (MTS) with ARPE-19 cells; type: cell-based; conditions: ARPE-19, 24-hour incubation
Excerpt: PDA NPs have been synthesized and loaded with anti-VEGF (149 kDa) and model therapeutic bovine serum albumin (BSA) (66.5 kDa), which has similar properties to heme-HSA (67 kDa). These protein-loaded NPs are 160 nm in diameter, an optimal size for intraocular injection through a small needle (FIG. 6A). These NPs were easily injected into ex vivo porcine eyes obtained from a local abattoir through a 31 G needle. […] In preliminary studies, in vitro release of model protein BSA and anti-VEGF (bevacizumab) were evaluated. Drug loading capacity was of 35-40% of the NPs. NPs sustained release of BSA 2-6 months and anti-VEGF at least 3 months in vitro, as determined by BCA and enzyme-linked immunosorbent assays (ELISA). Therapeutics were not completely released from NPs at low levels of oxidative stress at the end of the study (FIG. 7) In vitro cytotoxicity was determined by MTS assay (FIG. 8) and live/dead assay with human retinal pigment epithelial cells (ARPE-19).
Cell Viability Assay. […] The cells were stained for 3 hours before measurement of optical density at 490 nm with Varioskan™ Lux multimode microplate reader using SkanIT software (Thermo Fisher Scientific, Waltham, MA).
Cytotoxicity of Heme-Albumin, Heme-Albumin loaded PDA NPs, and Blank NPs. […] The toxicity of heme-albumin as a therapeutic has yet to be determined and was investigated at varying concentrations. […]

IL-1β [5] = assay: PCR quantification of IL-1β gene expression in ARPE-19 cells; type: cell-based, human
Method: as §3, with “GAPDH was used as a housekeeping gene.” left out
as §5, §4

Caspase-3 = assay: PCR quantification of caspase-3 gene expression in ARPE-19 cells; type: cell-based, human; conditions: 500 μg/mL heme-albumin, oxidative stress conditions
Method: as §3, §4

[6] = 500 μg/mL heme-albumin without oxidative challenge, vs untreated control
[7] = 500 μg/mL heme-albumin, oxidative stress conditions

heme-albumin: heme bound to human serum albumin (HSA), synthesized protein complex, 2:1 heme:HSA
IL-1β expression in cell lysate (ELISA) (IL-1β [1]; co-treatment 500 μg/mL heme-albumin + 100 μM H2O2, vs basal control): neither 100 μM H2O2 challenge or co-treatment with oxidative challenge or heme-albumin caused a statistically significant change
secreted IL-1β in media (ELISA) (IL-1β [1]; heme-albumin with oxidative challenge, vs untreated control, p<0.05): statistically significant difference; also recorded: statistically significant (p<0.05) increase
reduction of oxidative stress, H2O2 ROS model (ARPE-19 cells [2]): 17±3%
reduction of oxidative stress, H2O2 ROS model (ARPE-19 cells [2]; listed as Heme-albumin): 17%
reduction of oxidative stress, LPS model (ARPE-19 cells [3]; maximum reduction at 1000 μg/mL heme-albumin): 22±10% and 22%
concentrations giving significant reduction in oxidative stress, LPS model (ARPE-19 cells [3]; p<0.05): above 200 μg/mL
p38 MAPK expression (immunofluorescence) (p38β MAPK): increased expression
p38 MAPK expression (immunofluorescence) (p38β MAPK; listed as Heme-albumin): increase total p38 MAPK expression
caspase-9 gene expression (PCR) (Caspase-9): statistically significant difference; also recorded: statistically significant reduction
HO-1 expression (HO-1; 500 μg/mL heme-albumin + 100 μM H2O2, stressed conditions (challenged control 135.9±25.2)): 381.1 ± 96.33 pg/mL
HO-1 expression (HO-1; 500 μg/mL heme-albumin, 24 h, baseline conditions (untreated control 118.9±14.9)): 274.0 ± 44.3 pg/mL
increase in HO-1 concentration (HO-1; 500 μg/mL heme-albumin, compared to basal and stressed ARPE-19 cells): ~3 times
increase in activated (phospho) p38 MAPK protein expression (phospho-p38 MAPK; compared to basal condition control): 200%
phospho-p38 MAPK expression (phospho-p38 MAPK; compared to basal control, p<0.05): significant increase
IL-6 gene expression (PCR) (IL-6; [6]): do not induce additional cytokine expression; also recorded: did not induce significant additional pro-inflammatory protein expression
IL-6 gene expression (PCR) (IL-6; [7]): not a statistically significant expression
cytotoxicity (cell viability, MTS) (ARPE-19 cells [4]; 100-2000 μg/mL heme-albumin): no significant cytotoxicity
LC50 (ARPE-19 cells [4]; MTS): > 2000 µg/mL
IL-1β gene expression (PCR) (IL-1β [5]; [6]): do not induce additional cytokine expression; also recorded: did not induce significant additional pro-inflammatory protein expression
IL-1β gene expression (PCR) (IL-1β [5]; [7]): not a statistically significant expression
caspase-3 gene expression (PCR) (Caspase-3): nor was there a statistical difference
